Where “and” joins values, the source holds several entries; their conditions need not be identical. Identical values can stand only once.

The text below walks through data of patent publication US9340577B2, “HLA binding motifs and peptides and their uses” (priority 1992, dated 2016).

One experiment addresses B*0702 (B*0701) (Homo sapiens, UniProt P01889). Format: binding. To be noted: Table 25; given as whole numbers, no unit.
In a further experiment the target is B*0701 (Homo sapiens, UniProt P01889). As to the kind of experiment: biochemical.
In experiment [1] the test system is B7-Like Supertype (B*0701, B*3501, B*5101, B*5301, B*5401). Format: binding, human.
The next experiment addresses B*5401 (Homo sapiens, UniProt P01889, A329T/C349S/D138N/D201E/E176V/E187T/E204Q/E69G/I76V/K202T/L119W/R155S/R180L/S121T/S35A/S48A/V127L/V306I/V36M/Y140L). Kind of experiment: biochemical.
A further experiment has as its target A2.1 HLA molecules (Homo sapiens, UniProt P04439, D140Y/D185E/D98H/E176V/E277Q/G131W/G231S/I119V/I121R/I166T/I218V/L300P/L318F/N151K/N90K/P208A/P217A/Q86G/Q94H/R138H/R169H/T345S).

In the case of `C[C@H](NC(=O)[C@H](C)NC(=O)[C@H](Cc1ccc(O)cc1)NC(=O)[C@H](CCCCN)NC(=O)[C@H](Cc1ccccc1)NC(=O)[C@@H]1CCCN1C(=O)[C@@H](N)Cc1ccccc1)C(=O)N[C@@H](C)C(=O)N[C@@H](Cc1ccccc1)C(=O)O`, the “B*0701 binding” value at B*0702 (B*0701) came to 0.

In turn, `CC[C@H](C)[C@H](NC(=O)[C@@H](NC(=O)[C@H](CC(C)C)NC(=O)[C@H](CC(C)C)NC(=O)CNC(=O)[C@H](C)NC(=O)[C@@H](NC(=O)[C@@H]1CCCN1C(=O)[C@@H](N)CCSC)C(C)C)[C@@H](C)CC)C(=O)O` came in with an IC50 against B*0701 of 86 nM.

With `CC[C@H](C)[C@H](NC(=O)[C@H](Cc1ccc(O)cc1)NC(=O)[C@H](CC(C)C)NC(=O)[C@H](Cc1c[nH]cn1)NC(=O)[C@H](CO)NC(=O)[C@@H](NC(=O)[C@@H]1CCCN1C(=O)[C@@H](N)C(C)C)[C@@H](C)CC)C(=O)N[C@@H](CC(C)C)C(=O)O`, in experiment [1], the x-rxn was 4.

In the case of `CC[C@H](C)[C@H](NC(=O)[C@H](Cc1ccc(O)cc1)NC(=O)[C@H](CC(C)C)NC(=O)[C@H](CCSC)NC(=O)[C@H](CO)NC(=O)[C@@H](NC(=O)[C@@H]1CCCN1C(=O)[C@@H](N)C(C)C)[C@@H](C)CC)C(=O)N[C@@H](CC(C)C)C(=O)O`, the IC50 on B*0701 was determined as 164 nM; against B*5401, 1490 nM.

As for FLLTRILTI, the “A2 Bind.” value at A2.1 HLA molecules was 0.6300 and 0.9300.

For LVFGIELMEV, at A2.1 HLA molecules, the A2 turned out to be 0.1100 and the “A2 Bind.” value was determined as 0.1100.

For the compound YSFLPSDFFPSV, the “A2 Bind.” value in the experiment with A2.1 HLA molecules is on record as 0.0190.

By IC50 is commonly meant the concentration at which inhibition is half-maximal.
